# Results taken from IntAct's records for PubMed 17054981.
# B1: Nucleotide-binding oligomerization domain-containing protein 1 (Homo sapiens), Q9Y239 (parent)
# chain: MEEQGHSEMEIIPSESHPHIQLLKSNRELLVTHIRNTQCLVDNLLKNDYFSAEDAEIVCACPTQPDKVRKILDLVQSKGEEVSEFFLYLLQQLADAYVDLRPWLLEIGFSPSLLTQSKVVVNTDPVSRYTQQLRHHLGRDSKFVLCYAQKEELLLEEIYMDTIMELVGFSNESLGSLNSLACLLDHTTGILNEQGETIFILGDAGVGKSMLLQRLQSLWATGRLDAGVKFFFHFRCRMFSCFKESDRLCLQDLLFKHYCYPERDPEEVFAFLLRFPHVALFTFDGLDELHSDLDLSRVPDSSCPWEPAHPLVLLANLLSGKLLKGASKLLTARTGIEVPRQFLRKKVLLRGFSPSHLRAYARRMFPERALQDRLLSQLEANPNLCSLCSVPLFCWIIFRCFQHFRAAFEGSPQLPDCTMTLTDVFLLVTEVHLNRMQPSSLVQRNTRSPVETLHAGRDTLCSLGQVAHRGMEKSLFVFTQEEVQASGLQERDMQLGFLRALPELGPGGDQQSYEFFHLTLQAFFTAFFLVLDDRVGTQELLRFFQEWMPPAGAATTSCYPPFLPFQCLQGSGPAREDLFKNKDHFQFTNLFLCGLLSKAKQKLLRHLVPAAALRRKRKALWAHLFSSLRGYLKSLPRVQVESFNQVQAMPTFIWMLRCIYETQSQKVGQLAARGICANYLKLTYCNACSADCSALSFVLHHFPKRLALDLDNNNLNDYGVRELQPCFSRLTVLRLSVNQITDGGVKVLSEELTKYKIVTYLGLYNNQITDVGARYVTKILDECKGLTHLKLGKNKITSEGGKYLALAVKNSKSISEVGMWGNQVGDEGAKAFAEALRNHPSLTTLSLASNGISTEGGKSLARALQQNTSLEILWLTQNELNDEVAESLAEMLKVNQTLKHLWLIQNQITAKGTAQLADALQSNTGITEICLNGNLIKPEEAKVYEDEKRIICF
# Variants of: B1
# Settings: with ripk2_human RIPK2, O43353
row,effect of a mutation on the interaction,Variant
1,disrupting interaction,E56K
2,decreasing interaction,R69E
3,disrupting interaction,D54K

# Further lines, the variant ahead of its results:
row,Variant,effect of a mutation on the interaction
1,V41A,decreasing interaction
2,E53K,disrupting interaction
